{
  "source": "patent US20100081624A1",
  "about": "“SELECTIVE PEPTIDES THAT INHIBIT THE BIOLOGICAL ACTIVITY OF CALCINEURIN” (Consejo Superior de Investigaciones Cientficas, priority 2005, published 2010)",
  "target": "Calcineurin (CN), heterodimer of catalytic sub-unit CnA and regulatory sub-unit CnB (Sigma)",
  "assay": "dose-dependent competition of GST-NFATc2 pull-down of CN, densitometry (FIG. 5)",
  "data": [
    {"substance": "LxVPc1 peptide (synthetic peptide with the LxVP sequence of NFATc1)", "values": [
      {"measurement": "concentration that totally blocked the binding", "value": 50, "unit": "µM"}
    ]}
  ]
}
